pIC50: −log10 of the molar value.
Target: CDK9 (Homo sapiens, UniProt P50750)
Experiment: SelectScreen in vitro kinase IC50
Format: biochemical
Procedure: First, we used Ambit's KINOMEscan™ technology to identify those kinases that are inhibited for substrate binding by the compounds, all assayed at 1 μM. Second, we used Invitrogen's SelectScreen® Biochemical Kinase Profiling Service to determine the in vitro IC50s for the compounds against specific kinases.

The chains behind the UniProt entries cited, without tags or fusion partners.
UniProt P50750, whole entry: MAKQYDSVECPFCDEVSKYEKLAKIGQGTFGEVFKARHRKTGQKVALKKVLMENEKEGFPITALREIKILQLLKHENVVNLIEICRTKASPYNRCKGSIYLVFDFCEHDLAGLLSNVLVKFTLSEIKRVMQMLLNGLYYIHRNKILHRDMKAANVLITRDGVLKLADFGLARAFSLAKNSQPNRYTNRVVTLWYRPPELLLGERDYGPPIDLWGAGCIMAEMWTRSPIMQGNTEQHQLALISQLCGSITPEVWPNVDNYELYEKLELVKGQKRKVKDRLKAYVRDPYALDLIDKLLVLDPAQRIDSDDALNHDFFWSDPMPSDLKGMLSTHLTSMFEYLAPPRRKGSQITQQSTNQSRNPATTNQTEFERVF

Compound: COc1ccc(-c2cc3nccn3c(Nc3ncccc3C(N)=O)n2)cc1OC.Cl.Cl [BAY61-3606, 2-[7-(3,4-dimethoxyphenyl)-imidazo [1,2-c]pyrimidin-5-ylamino] nicotinamide dihydrochloride, reference compound]
- pIC50: 7.46

From PMC3399817 (PLoS ONE, 2012)
